Test results: the NIST ThermoML archive (doi:10.1016/j.fluid.2018.11.011)
± gives the expanded uncertainty stated by the source.

Assay: activity coefficient (dimensionless); of the first substance listed, at infinite dilution; xn = mol fraction of the nth substance listed
Settings: 101.33 kPa, Liquid, Chromatography, x1 = 0

SMILES | activity coefficient (323 K) | activity coefficient (338 K) | activity coefficient (353 K)
CCCCOCCCC [dibutyl ether] + CCCCCCCCCC[N+](C)(C)CCCCCCCCCC.F[B-](F)(F)F | 2.87 ± 0.3 | 2.65 ± 0.28 | 3.58 ± 0.38
CCCCOCCCC [dibutyl ether] + CCCCCCCCCC[N+](C)(C)CCCCCCCCCC.[O-][Cl+3]([O-])([O-])[O-] | 3.12 ± 0.33 | 4.5 ± 0.47 | 4.42 ± 0.46
